Cyclic peptide permeability, from CycPeptMPDB

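Lipid, pH, incubation time, direction and concentration are not recorded in the data file. Other peptides of the study may be missing here. Entries at the database's floor value (log10 P of -10) are not listed.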

PAMPA is the parallel artificial membrane permeability assay, which has no cells and reads passive diffusion.
Permeability is in 10^-6 cm/s, converted from the database's log10 values; higher is more permeable.

PAMPA (10^-6 cm/s)	SMILES
3.9	CC(C)C[C@@H]1NC(=O)[C@H]2CCCN2C(=O)[C@@H](CC(C)C)N(C)C(=O)[C@H](CC(C)C)NC(=O)[C@@H](C)N(C)C(=O)[C@H](Cc2ccccc2)NC1=O
3	CC(C)C[C@@H]1C(=O)N[C@H](CC(C)C)C(=O)N2CCC[C@H]2C(=O)N(Cc2ccccc2)CC(=O)N[C@@H](Cc2ccccc2)C(=O)N[C@H](C)C(=O)N1C
0.48	CC(C)C[C@@H]1NC(=O)C[C@H](Cc2ccccc2)NC(=O)[C@H](Cc2ccccc2)NC(=O)[C@@H](CC(C)C)NC(=O)[C@@H]2CCCN2C(=O)[C@H](CC(C)C)NC1=O
0.3	CC(C)C[C@@H]1NC(=O)[C@H](C)NC(=O)[C@H](Cc2ccccc2)NC(=O)[C@@H](CC(C)C)NC(=O)[C@H]2CCCN2C(=O)[C@H](CC(C)C)N(C)C1=O
15	CCCN1CC(=O)N[C@@H](CC(C)C)C(=O)N(Cc2ccccc2)CC(=O)N2CCC[C@H]2C(=O)N(C)[C@H](CC(C)C)C(=O)N[C@@H](Cc2ccccc2)C1=O
2.1	CC(C)C[C@@H]1NC(=O)C[C@H](Cc2ccccc2)NC(=O)[C@H](Cc2ccccc2)NC(=O)[C@H](CC(C)C)N(C)C(=O)[C@@H]2CCCN2C(=O)[C@H](CC(C)C)NC1=O
6.5	CC(C)C[C@@H]1C(=O)N2CCC[C@H]2C(=O)N(C)[C@@H](CC(C)C)C(=O)N[C@@H](Cc2ccccc2)C(=O)N2CCC[C@@H]2C(=O)N[C@@H](C)C(=O)N(C)[C@@H](CC(C)C)C(=O)N1C
1.4	CC(C)C[C@H]1NC(=O)[C@@H]2CCCN2C(=O)[C@H](CC(C)C)N(C)C(=O)[C@@H](CC(C)C)NC(=O)[C@H](C)N(C)C(=O)[C@H]2CCCN2C(=O)[C@H](Cc2ccccc2)NC1=O
6.2	CC(C)C[C@@H]1NC(=O)C[C@H](Cc2ccccc2)NC(=O)[C@H](Cc2ccccc2)NC(=O)[C@@H](CC(C)C)N(C)C(=O)[C@H]2CCCN2C(=O)[C@H](CC(C)C)N(C)C1=O
0.91	CC(C)C[C@H]1NC(=O)[C@@H](C)N(C)C(=O)[C@@H]2CCCN2C(=O)[C@H](Cc2ccccc2)NC(=O)[C@H](CC(C)C)N(C)C(=O)[C@H]2CCCN2C(=O)CN(Cc2ccccc2)C1=O
2.6	CC(C)C[C@H]1C(=O)N[C@@H](Cc2ccccc2)CC(=O)N2CCC[C@H]2C(=O)N(C)[C@@H](CC(C)C)C(=O)N[C@@H](Cc2ccccc2)C(=O)N2CCC[C@H]2C(=O)N[C@@H](Cc2ccccc2)CC(=O)N1C
4.7	CC(C)C[C@@H]1NC(=O)[C@H](CC(C)C)N(C)C(=O)C[C@H](Cc2ccccc2)NC(=O)[C@H]2CCCN2C(=O)[C@H](Cc2ccccc2)NC(=O)[C@@H](CC(C)C)NC(=O)[C@@H]2CCCN2C1=O
2	CC(C)C[C@@H]1NC(=O)[C@@H](CC(C)C)NC(=O)C[C@H](Cc2ccccc2)NC(=O)[C@H](Cc2ccccc2)NC(=O)[C@H](CC(C)C)N(C)C(=O)[C@@H]2CCCN2C1=O
5.8	CC(C)C[C@@H]1NC(=O)[C@@H](CC(C)C)N(C)C(=O)C[C@H](Cc2ccccc2)NC(=O)[C@H](Cc2ccccc2)NC(=O)[C@@H](CC(C)C)N(C)C(=O)[C@@H]2CCCN2C1=O
1.5	CC(C)C[C@@H]1C(=O)N[C@@H](Cc2ccccc2)C(=O)N2CCC[C@@H]2C(=O)N[C@H](C)C(=O)N(Cc2ccccc2)CC(=O)N[C@@H](Cc2ccccc2)CC(=O)N2CCC[C@@H]2C(=O)N1C
9.3	CC(C)C[C@@H]1C(=O)N[C@H](CC(C)C)C(=O)N2CCC[C@@H]2C(=O)N(C)[C@H](CC(C)C)C(=O)N[C@@H](Cc2ccccc2)C(=O)N2CCC[C@H]2C(=O)N(C)[C@H](C)C(=O)N1C
3.9	CCCN1CC(=O)N[C@H](CC(C)C)C(=O)N(Cc2ccccc2)CC(=O)N2CCC[C@@H]2C(=O)N(C)[C@H](CC(C)C)C(=O)N[C@@H](Cc2ccccc2)C(=O)N2CCC[C@@H]2C1=O
4.9	CCCN1CC(=O)N(C)[C@@H](CC(C)C)C(=O)N(Cc2ccccc2)CC(=O)N2CCC[C@H]2C(=O)N(C)[C@@H](CC(C)C)C(=O)N[C@@H](Cc2ccccc2)C(=O)N2CCC[C@H]2C1=O
2.9	CC(C)C[C@@H]1C(=O)N2CCC[C@H]2C(=O)N(C)[C@H](CC(C)C)C(=O)N[C@@H](Cc2ccccc2)C(=O)N2CCC[C@H]2C(=O)N(C)[C@@H](C)C(=O)N[C@H](CC(C)C)C(=O)N1C
0.89	CC(C)C[C@@H]1NC(=O)[C@@H]2CCCN2C(=O)[C@H](CC(C)C)NC(=O)[C@@H](CC(C)C)NC(=O)[C@H](C)N(C)C(=O)[C@H](Cc2ccccc2)NC1=O
2.6	CC(C)C[C@@H]1C(=O)N(C)[C@@H](CC(C)C)C(=O)N2CCC[C@@H]2C(=O)N(C)[C@H](CC(C)C)C(=O)N[C@@H](Cc2ccccc2)C(=O)N2CCC[C@H]2C(=O)N[C@@H](C)C(=O)N1C
1.5	CCCN1CC(=O)N[C@@H](CC(C)C)C(=O)N[C@H](CC(C)C)C(=O)N2CCC[C@@H]2C(=O)N[C@H](CC(C)C)C(=O)N[C@@H](Cc2ccccc2)C(=O)N2CCC[C@@H]2C1=O

Values of Townsend et al. 2020, doi:10.26434/chemrxiv.13335941.v1, as listed in CycPeptMPDB.